Patent US9657003B2, “Androgen receptor modulating compounds” (ORION CORPORATION, priority 2009, dated 2017)

Target: rat androgen receptor (Rattus norvegicus (Rat), UniProt P15207)
Assay: Androgen receptor binding assay (competition binding with [3H]mibolerone)
Settings: cytosolic lysates from ventral prostates of castrated rats; 1 nM [3H]mibolerone; Cheng and Prusoff; read-out: AR binding affinity Ki

Q: How did the Ki turn out when `Cc1cc(-c2ccn(CCNC(=O)c3cc(-c4cccnc4)n[nH]3)n2)ccc1C#N` [Example 53, N-(2-(3-(4-cyano-3-methylphenyl)-1H-pyrazol-1-yl)ethyl)-3-(pyridin-3-yl)-1H-pyrazole-5-carboxamide] was run?
A: 18 nM
